## Binding of CDR-mutated scFvs to a peptide of the spike HR2 region

Target: peptide PDVDLGDISGINAS, taken from heptad repeat 2 (HR2) of SARS-CoV-2 spike.

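The parent was found by panning a naive human phage display library on the peptide. Variants in AAYL51 differ from the parent at up to three CDR positions; double and triple changes were sampled at random. The scFvs were displayed on barcoded MATa yeast, the peptide on MATalpha yeast. Pairs that bind mate more often; barcode pairs of the diploids are counted by sequencing. Read counts were normalised to the haploid input and turned into Kd by a linear fit to BCL2-family pairs of known affinity, for each replicate. Each pool was mated in three replicate cultures.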

Ab-91 is the parent antibody, in scFv form: VL, then a 15-residue (Gly4Ser)3 linker, then VH. The light chain is unchanged in all variants.
VL: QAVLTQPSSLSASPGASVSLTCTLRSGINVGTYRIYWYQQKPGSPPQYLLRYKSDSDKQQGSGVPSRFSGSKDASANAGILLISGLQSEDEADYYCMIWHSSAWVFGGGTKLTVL
VH: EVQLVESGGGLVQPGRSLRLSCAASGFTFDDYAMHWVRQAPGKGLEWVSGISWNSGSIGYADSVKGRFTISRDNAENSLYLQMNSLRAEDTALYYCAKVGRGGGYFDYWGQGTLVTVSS

Changes read parent residue, position, new residue, counted from the first residue of the VH shown.
Scale: log10 of Kd in nM, estimated from mating counts; low values are strong binders.
A mean of the replicates is given; it leaves out those without a signal.
A pair that was not seen in any replicate is written "nd"; this usually means weak binding, but a binder can also be missed.
In this assay the parent's reference entry averaged 1.86; its copy inside this library read 0.88.
Nonspecific signal, from three strains lacking the peptide, appeared in 21% of pairings of library AAYL51, centred on 4.54 (5% of these signals below 3.26); values are not corrected for it. The control count says in how many pairings with the empty strains this scFv gave a signal.

With Y60I A61N G102D the result was 3.07 (3 of 3 replicates; controls 1 of 9).
With G50M F106T D107S the result was nd (0 of 3 replicates; controls 0 of 9).
With T28P D62I F106M the result was 3.04 (3 of 3 replicates; controls 4 of 9).
With Y32L W53M K65P the result was nd (0 of 3 replicates; controls 0 of 9).
With A61I G102H D107A the result was 3.81 (1 of 3 replicates; controls 0 of 9).
With H35W S52A G102V the result was 4.93 (2 of 3 replicates; controls 2 of 9).
With T28Y S52Q Y105T the result was 4.83 (1 of 3 replicates; controls 1 of 9).
With F29Y G56K F106L the result was 5.24 (2 of 3 replicates; controls 2 of 9).
With D30A D31F the result was 0.61 (3 of 3 replicates; controls 0 of 9).
With D30T A33W the result was nd (0 of 3 replicates; controls 0 of 9).
With T28A S55E G56N the result was nd (0 of 3 replicates; controls 0 of 9).
With M34C K65I G102T the result was 3.86 (1 of 3 replicates; controls 1 of 9).
With D62M V64F D107I the result was 3.44 (3 of 3 replicates; controls 2 of 9).
With S52R Y60N G104N the result was nd (0 of 3 replicates; controls 0 of 9).
With G26D Y60N the result was 4.53 (2 of 3 replicates; controls 0 of 9).
With D62A S63V the result was 3.13 (3 of 3 replicates; controls 3 of 9).

Continued, with the values leading:

1.50 (3 of 3 replicates; controls 0 of 9): G26S G56N Y108L.
nd (0 of 3 replicates; controls 0 of 9): Y32L I58M D107A.
nd (0 of 3 replicates; controls 3 of 9): F29S M34C F106N.
3.68 (1 of 3 replicates; controls 1 of 9): D31I H35W G102I.
nd (0 of 3 replicates; controls 1 of 9): G50T Y105V D107G.
2.83 (1 of 3 replicates; controls 0 of 9): Y32I S57F V64W.
5.27 (2 of 3 replicates; controls 2 of 9): F27C D31S.
3.90 (1 of 3 replicates; controls 3 of 9): G100M G104N Y108P.
nd (0 of 3 replicates; controls 0 of 9): W53L S55C Y105L.
nd (0 of 3 replicates; controls 1 of 9): T28F S57Y V99K.
3.45 (1 of 3 replicates; controls 0 of 9): D31N N54H A61D.
3.64 (1 of 3 replicates; controls 1 of 9): D31H S52N Y60P.
4.37 (2 of 3 replicates; controls 3 of 9): G102M D107G Y108R.
nd (0 of 3 replicates; controls 0 of 9): V64Q G104H F106P.
4.07 (1 of 3 replicates; controls 1 of 9): G26Y S52W N54E.
0.99 (3 of 3 replicates; controls 0 of 9): A33L D62Q G104Y.
4.52 (2 of 3 replicates; controls 3 of 9): F29H M34Y W53R.

The opening 2 entries, copied out:

changes	mean log10 Kd (nM)	replicates with signal	empty controls
Y60I A61N G102D	3.07	3/3	1/9
G50M F106T D107S	nd	0/3	0/9

Reference: Engelhart et al. 2022, doi:10.1038/s41597-022-01779-4. File: FLAb, binding data.